Laboratory results published in patent US20170191988A1.

Assays:
[1] = target: long AHLR assay construct (ssFLAG-long AHLR-HA-lyt2) (mouse) (UniProt P01731); test: cell-based or functional assay
[2] = target: short AHLR assay construct (ssFLAG-short AHLR-HA-lyt2) (mouse) (UniProt P01731); test: cell-based or functional assay

FLAG cell surface detection (% cells, flow cytometry), AHLR co-transfected with MMP-14 plasmid against control plasmid [1]: 14% | FLAG cell surface expression, mean of replicates (n=4), AHLR+ cells transfected with MMP-14 against control plasmid [1]: 36.1% | FLAG expression, mean of replicates (n=4), AHLR+ cells with MMP-14(i) and rtTA, after against before dox induction [1]: 74.8% | FLAG tag (% cells, flow cytometry, n=5), 50K AHLR+ cells mixed with 175K MMP-14+ cells against naive HEK 293T control [1]: 15.2% | FLAG tag expression on the cell surface (% FLAG-positive cells, flow cytometry), HEK 293T co-transfected with MMP-14 against substrate alone [1]: 24% | FLAG tag signal (% cells, flow cytometry), HEK-293T co-transfected with AHLR, MMP-14 (i) and rtTA, with dox against without dox [1]: 22% | FLAG tag signal (% cells, flow cytometry), constitutive MMP-14 (c) co-transfected with AHLR [1]: 11% | FLAG-tag signal (% cells, flow cytometry), AHLR+ cells transfected with constitutive MMP-14(c) [1]: 33% | FLAG-tag signal (% cells, flow cytometry), AHLR+ cells transfected with inducible MMP-14(i), with dox [1]: 38% | FLAG-tag signal (% cells, flow cytometry), AHLR+ cells transfected with inducible MMP-14(i), without dox [1]: 56% | FLAG-tag staining (% cells, flow cytometry), stable AHLR+ cells transfected with MMP-14(c) [1]: 23% | FLAG tag expression on the cell surface (% FLAG-positive cells, flow cytometry), HEK 293T co-transfected with MMP-14 against substrate alone [2]: 19%
Substance: HA-tagged MMP-14 protein (full-length human MMP-14 with an HA-tag upstream of the MMP-14 transmembrane domain) (from UniProt P50281 112-582) (enzyme)
